Literature values as cited in publication PMC8792198 (Journal of pharmaceutical sciences, 2021).

Test system: OATP2A1
Conditions: 100 μM diclofenac, same expression system; ref 31 (Glaeser et al, 2014); cited from earlier work

## O=C(O)Cc1ccccc1Nc1c(Cl)cccc1Cl [diclofenac]
  effect on OATP2A1-mediated uptake of quercetin: lack of effect
